# Bioassay records (PubChem BioAssay)
# Shown are actives, neighbours in structure and some others; about 3.7% of the full set was active somewhere.
# p53 reactivation: mutant p53 re-activation in reporter cells; H1299 p53-A138V BP100-luciferase reporter, luminescence, 24 h; Potency, µM (top dose mostly 92.2 µM), inactives show at the top dose activity change, positive = activation, usual class: activators; hit rate 0.063% among 320,000; AID 504706; further: potency means the concentration at half of the fitted maximal effect; % of control where 0% means no effect; nearly all actives have a fitted effect of over 45% in size
#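 p53-null H1299 cells stably carrying temperature-sensitive p53-A138V and a BP100-luciferase reporter were pinned with compounds (4-point, 1:5 series) and held 24 hrs at 37 deg C. Luminescence was read 10 min after detection reagent.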
# Nrf2 inh: Nrf2 pathway inhibition; AID 504444; A549 ARE-Fluc reporter, luciferase luminescence, 18-24 h; hit rate 2.1% among 360,000; Potency, µM (doses to about 46 µM), for the others: at the highest dose activity change, negative = inhibition, usual class: inhibitors; further: potency means the concentration at half of the fitted maximal effect; on the % scale 0 is the no-effect control and ±100 the full control effect; nearly all actives have a fitted effect of over 60% in size
#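 Concentration-response testing used A549 ARE_Fluc cells at 5000 cells/well. Following an 18-24 h compound incubation, viability was read by fluorescence (Ex 405/Em 525) and luciferase output by luminescence.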
# A549 viability: counter-screen for Nrf2 inhibitors: cytotoxicity in A549 cells; A549 ARE-Fluc cells, CellTiter-Fluor viability, 18-24 h; Potency, µM (doses to about 46 µM), for inactives: at the top dose activity change, negative = cytotoxicity, hits mostly inhibitors; hit rate 0.16% among 390,000; further: potency means the concentration at half of the fitted maximal effect; on the % scale 0 is the no-effect control and ±100 the full control effect
#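 A549 ARE_Fluc cells in 5% FBS OPTI-MEM were exposed to compounds in concentration-response for 18-24 h at 37 deg C. Viability was read by CellTiter-Fluor fluorescence (Ex 405/Em 525) after 30 min, before the luciferase read.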
# Nrf2 ARE act: Nrf2 pathway activation; AREc32 ARE-luciferase reporter (MCF7-derived line), luminescence, 24 h; Potency, µM (series often up to 46.1 µM), for inactives: at the top dose activation, most hits filed as activators; hit rate 0.31% among 410,000; AID 624171; further: potency means the concentration at half of the fitted maximal effect; % of control where 0% means no effect; nearly all actives have a fitted effect of over 65% in size
#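 Each well held 1000 AREc32 cells, which were incubated with compound for 24 hr at 37 deg C after overnight attachment, and ARE reporter activity was quantified by firefly luciferase luminescence.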
# miR-21 reporter: miR-21 reporter, rising signal | HeLa miR-21 FLuc reporter, luciferase, 48 h | Potency, µM (highest dose often 38.3 µM), for inactives: at the top dose reporter change, positive = more light | 340,000 tested, under 10 active | AID 2288; active = well fitted rising curve with a large enough effect; inconclusive = small, poorly fitted or top-dose-only effect; inactive = no such curve, though single readings can be large or run the other way;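 further: % of control where 0% means no effect; miR-21 action dims this reporter so a rising signal means less miR-21 action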
#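 HeLa cells stably expressing CMV-driven firefly luciferase with a downstream miR-21 binding sequence, endogenously expressing miR-21, were treated with titrations (up to about 40uM final) for 48 hours at 37 degree Celsius. Luciferase luminescence was read after lysis.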
# ClpP mod: qHTS Assay for Activators of ClpP; AID 651965, 2013; ATP-dependent Clp protease proteolytic subunit (Bacillus subtilis (strain 168)), P80244; purified B. subtilis ClpP, FRET peptide cleavage, 20 min; Potency, µM (highest dose often 57.5 µM), inactives show at the highest dose activity change, negative = active; hit rate 1.9% among 340,000; active means well fitted falling curve with a large enough effect; inconclusive means small, poorly fitted or top-dose-only effect; inactive means no such curve, though single readings can be large or run the other way; further: potency means the concentration at half of the fitted maximal effect; the source files actives as falling curves though it sought activators and does not explain the sign; nearly all actives have a fitted effect of over 65% in size
#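 ClpP 10 microg/mL final, pH 8 Tris/KCl buffer with BSA, glycerol, Tween-20; compound pinned in; FRET-FV substrate; RT 20 min; Ex320/Em430; ΔFRET vs ADEP 5.8 microM, DMSO, no enzyme.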
# * = called active by the depositor; ? = inconclusive; . = no result given; ! = repeats disagree. Unless noted, the call rests on the fitted dose curve; in most records, active means well fitted curve in the direction sought with a large enough effect; inconclusive means small, poorly fitted or top-dose-only effect, or another doubt; inactive means no such curve, though single readings can be large; an effect the other way counts as inactive or inconclusive.
1: COc1ccccc1N(CC(=O)NC1CC2CCC1C2)S(=O)(=O)c1ccc(C)cc1 (stereo not given)
2: COc1ccccc1N(CC(=O)NCCSCc1ccccc1)S(=O)(=O)c1ccc(C)cc1
3: CCC(C)NC(=O)CN1C(=O)c2cccnc2Oc2ccc(C)cc21 (stereo not given)
4: COc1ccc2c(n1)Sc1nc3ccccc3nc1N2
5: Cn1c(=O)c2c(nc(Sc3ncccn3)n2Cc2ccc(Cl)cc2)n(C)c1=O
6: Cn1c(=O)c2c(nc(NCCO)n2CCCc2ccccc2)n(C)c1=O
7: Cc1cccc(Cn2c(NCCO)nc3c2c(=O)n(C)c(=O)n3C)c1
8: CNc1nc2c(c(=O)n(C)c(=O)n2C)n1Cc1ccccc1

Amino acid sequences for entries named in this document (tags omitted).
ATP-dependent Clp protease proteolytic subunit (Bacillus subtilis (strain 168)), P80244, UniProt P80244, whole entry, looked up: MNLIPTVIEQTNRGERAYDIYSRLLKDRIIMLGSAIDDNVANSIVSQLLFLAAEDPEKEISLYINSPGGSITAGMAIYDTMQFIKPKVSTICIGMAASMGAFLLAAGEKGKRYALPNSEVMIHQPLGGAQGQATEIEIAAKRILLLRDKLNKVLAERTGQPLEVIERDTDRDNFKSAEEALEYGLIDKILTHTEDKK

assay / entry	1	2	3	4	5	6	7	8
p53 reactivation	-16%	4%	.	?	-2%	-62%	-4%	5%
Nrf2 inh	18µM*	15µM*!	.	?	15µM*	21µM*	4.1µM*	7.3µM*
A549 viability	-18%	-3%	-3%	1%	5%	0%	-19%	-16%
Nrf2 ARE act	1%	0%	1%	4.5µM*	1%	1%	0%	1%
miR-21 reporter	12%	?	3%	-54%	9%	13%	15%	5%
ClpP mod	-3%	0%	1%	.	-4%	-2%	0%	1%

9: O=S1(=O)CCO[C@H]2CCCC[C@@H]2N1Cc1ccccc1
10: O=C1c2ccc3c4c(ccc(c24)C(=O)N1CCCCO)C(=O)N(CCCCO)C3=O
11: COC(=O)CCCN1C(=O)c2cccc3cccc(c23)C1=O
12: O=C(c1ccc2c(c1)C(=O)N(CCCO)C2=O)c1ccc2c(c1)C(=O)N(CCCO)C2=O
13: O=C(COC(=O)CNC(=O)C1CCCCC1)Nc1ccccc1
14: O=C(CNC(=O)C1CCCCC1)OCc1cc(=O)oc2ccc3ccccc3c12
15: CCC1S/C(=N\S(=O)(=O)c2cccs2)N(C2CCCCC2)C1=O (stereo not given)
16: Cc1nn2c(=O)cc(COC(=O)c3ccc(NC(=O)c4ccc(C(C)(C)C)cc4)cc3)nc2s1

assay / entry	9	10	11	12	13	14	15	16
p53 reactivation	.	-11%	-3%	1%	7%	-4%	-5%	.
Nrf2 inh	.	?	1%	.	2%	8%	13%	.
A549 viability	.	18µM*	1%	7%	5%	2%	7%	-3%
Nrf2 ARE act	.	-2%	13µM*	-1%	0%	0%	0%	3%
miR-21 reporter	.	?	-29%	-4%	.	-4%	-3%	-34%
ClpP mod	-1%	-11%	-8%	1%	.	25µM*	28µM*	?

# Overlap with the part before: four entries, followed by the next part.
13: O=C(COC(=O)CNC(=O)C1CCCCC1)Nc1ccccc1
14: O=C(CNC(=O)C1CCCCC1)OCc1cc(=O)oc2ccc3ccccc3c12
15: CCC1S/C(=N\S(=O)(=O)c2cccs2)N(C2CCCCC2)C1=O (stereo not given)
16: Cc1nn2c(=O)cc(COC(=O)c3ccc(NC(=O)c4ccc(C(C)(C)C)cc4)cc3)nc2s1
17: N#Cc1nc(-c2ccco2)oc1N1CCN(c2ccccc2)CC1
18: N#Cc1nc(-c2ccco2)oc1N1CCOCC1
19: N#Cc1nc(-c2ccco2)oc1N1CCC(Cc2ccccc2)CC1
20: Cc1cc(NC(=O)Cc2ccccc2)c2ccccc2n1
21: CCCCC(=O)Nc1cc(N(C)C)nc2ccccc12
22: Cc1cc(Nc2cccc(Cl)c2)c2ccccc2n1
23: Nc1nc(N)c2c(OCc3ccc(C(F)(F)F)cc3)cccc2n1
24: Cc1ccc(C2/C(=C(\O)c3ccc4c(c3)OCCO4)C(=O)C(=O)N2CC2CCCO2)cc1 (stereo not given)

assay / entry	13	14	15	16	17	18	19	20	21	22	23	24
p53 reactivation	7%	-4%	-5%	.	-18%	-7%	4%	-4%	-21%	.	.	5%
Nrf2 inh	2%	8%	13%	.	?	.	-23%	9.2µM*	-6%	21µM*	.	6%
A549 viability	5%	2%	7%	-3%	-3%	-2%	-5%	-2%	-2%	?	.	4%
Nrf2 ARE act	0%	0%	0%	3%	1%	13µM*	2%	1%	0%	0%	.	0%
miR-21 reporter	.	-4%	-3%	-34%	-11%	-4%	-3%	21%	-2%	?	.	-4%
ClpP mod	.	25µM*	28µM*	?	-6%	-11%	25µM*	1%	8.9µM*	-7%	5%	-3%

25: CCCNC(=O)CN1C(=O)c2c(c3ccccc3n2C)C1c1ccc(OC)cc1 (stereo not given)
26: CCCCOC(=O)c1cccc(NC(=O)/C=C/c2ccccc2Cl)c1
27: O=C(/C=C/c1ccccc1Cl)Nc1cccc(O)c1
28: O=C(CNc1cccc2ccccc12)c1ccc([N+](=O)[O-])cc1
29: O=C(Nc1cccc2ccccc12)c1ccc([N+](=O)[O-])cc1
30: CCN(C)C1CN(Cc2cn(Cc3cccc(Cl)c3)nn2)S(=O)(=O)C1 (stereo not given)
31: CCOc1ccc(NC(=O)NC(C)c2c(-n3cccc3)sc(C)c2C)cc1 (stereo not given)
32: Cc1cc(C)cc(NS(=O)(=O)c2ccc3c(c2)CCCN3C(=O)C2CCC2)c1

assay / entry	25	26	27	28	29	30	31	32
p53 reactivation	.	.	?	29%	9%	.	.	.
Nrf2 inh	-7%	21µM*	1%	10%	1%	.	21µM*	.
A549 viability	12%	-1%	-2%	-1%	-10%	.	-28%	-4%
Nrf2 ARE act	3%	-2%	9%	1%	0%	0%	4%	0%
miR-21 reporter	2%	?	15%	-6%	0%	.	26%	11%
ClpP mod	28µM*	-9%	-1%	5.6µM*	0%	2%	-1%	0%

33: CC(/C=C(\NC(=O)c1ccccc1)C(=O)N=Nc1c(O)[nH]c2ccc(C)cc12)=C\c1ccccc1
34: Cc1ccc2[nH]c(O)c(N=NC(N)=S)c2c1
35: O=C(CSc1nc2ccccc2n1S(=O)(=O)c1cccc([N+](=O)[O-])c1)NCCc1ccccc1
36: CCCCNC(=O)CSc1nc2ccccc2n1S(=O)(=O)c1ccc(Br)cc1
37: CC(=O)c1cc(C(=O)NC2CCCc3c2cnn3-c2cc(C)cc(C)c2)[nH]n1 (stereo not given)
38: Cc1cc(C)cc(-n2ncc3c2CCCC3NC(=O)c2cc(C)[nH]n2)c1 (stereo not given)
39: Cc1cc(C(=O)NC2CCCc3c2cnn3-c2ccc(C(C)(C)C)cc2)nn1C (stereo not given)
40: CCOc1ccccc1CNC(=O)C1CCN(c2nnc(C)c3c(C)n(-c4ccc(C)cc4)nc23)CC1
41: COc1cccc(CNC(=O)Cn2nc(C)c3c(C)n(-c4ccc(C)cc4)nc3c2=O)c1OC
42: CCOc1ccccc1CNC(=O)Cn1nc(C)c2c(C)n(-c3ccc(C)cc3)nc2c1=O
43: COc1ccc(CNC(=O)Cn2nc(C)c3c(C)n(-c4ccc(C)cc4)nc3c2=O)cc1OC

assay / entry	33	34	35	36	37	38	39	40	41	42	43
p53 reactivation	-2%	1%	7%	9%	3%	-23%	-10%	-17%	-8%	-5%	9%
Nrf2 inh	.	-24%	18µM*	-8%	-3%	10%	2.6µM*	23µM*!	-12%	9.2µM*	23µM*
A549 viability	?	-3%	?	-2%	1%	-9%	-21%	?	4%	1%	-11%
Nrf2 ARE act	8.9µM*	0%	0%	0%	4%	0%	3%	7%	0%	9%	-1%
miR-21 reporter	12%	12%	-25%	-19%	-18%	15%	26%	-1%	0%	18%	1%
ClpP mod	-5%	1%	-1%	0%	32µM*	-3%	-1%	4%	-1%	-8%	-5%
